Protein sequences, listed by entry. Tags and fused reporters are not part of them. Lines headed by an entry give the natural chain unless they say otherwise; changes in a name come on top.
UniProt P56524: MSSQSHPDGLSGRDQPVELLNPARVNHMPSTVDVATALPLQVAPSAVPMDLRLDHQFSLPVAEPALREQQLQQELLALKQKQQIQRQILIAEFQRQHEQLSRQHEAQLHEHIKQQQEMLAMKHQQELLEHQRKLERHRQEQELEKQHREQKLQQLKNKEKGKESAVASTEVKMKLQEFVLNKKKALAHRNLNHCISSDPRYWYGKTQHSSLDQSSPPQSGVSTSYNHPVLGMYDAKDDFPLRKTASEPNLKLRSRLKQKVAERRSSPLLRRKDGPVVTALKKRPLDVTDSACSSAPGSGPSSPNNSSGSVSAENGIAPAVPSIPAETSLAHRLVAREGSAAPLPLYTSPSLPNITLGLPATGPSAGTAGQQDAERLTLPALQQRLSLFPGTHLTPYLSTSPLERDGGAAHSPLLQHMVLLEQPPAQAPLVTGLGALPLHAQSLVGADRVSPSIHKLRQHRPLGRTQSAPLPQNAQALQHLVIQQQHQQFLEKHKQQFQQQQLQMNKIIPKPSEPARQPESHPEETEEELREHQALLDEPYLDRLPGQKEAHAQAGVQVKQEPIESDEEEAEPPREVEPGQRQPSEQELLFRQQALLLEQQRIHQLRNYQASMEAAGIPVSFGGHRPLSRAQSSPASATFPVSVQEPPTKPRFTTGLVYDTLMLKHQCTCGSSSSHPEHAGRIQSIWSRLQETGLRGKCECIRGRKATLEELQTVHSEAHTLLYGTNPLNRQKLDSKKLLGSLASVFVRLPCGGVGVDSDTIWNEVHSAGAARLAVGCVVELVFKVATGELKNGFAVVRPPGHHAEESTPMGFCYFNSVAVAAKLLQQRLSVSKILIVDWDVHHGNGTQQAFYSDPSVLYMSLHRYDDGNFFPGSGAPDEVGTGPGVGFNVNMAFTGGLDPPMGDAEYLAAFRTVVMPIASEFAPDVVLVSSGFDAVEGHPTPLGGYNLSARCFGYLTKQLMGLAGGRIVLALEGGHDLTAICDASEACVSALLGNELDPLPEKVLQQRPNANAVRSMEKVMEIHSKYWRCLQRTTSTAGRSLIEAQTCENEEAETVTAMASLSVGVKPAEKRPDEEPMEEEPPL

According to ChEMBL document CHEMBL4616727, “Characterization of Conformationally Constrained Benzanilide Scaffolds for Potent and Selective HDAC8 Targeting” (J Med Chem, 2020):

Molecular target: Histone deacetylase 4 (Homo sapiens, UniProt P56524)
Experiment: Inhibition of C-terminal GST-tagged human HDAC4 (101 to 1084 resides) expressed in baculovirus expression system using FAM-RHKK(TF-Ac)-NH2 substrate incubated for 1.5 hrs by EMSA method

IC50: > 10 µM
SMILES: COc1ccc(Cn2ccc3ccc(C(=O)NO)cc32)cc1
